# Data as given in US12023323B2, “Carbohydrate-binding small molecules with antiviral activity” (priority 2018, dated 2024).
# Columns and labels:
# [1] = 1H NMR titration with octyloxy pyranoside β-Man; assay type: binding; settings: NMR titrations in CD2Cl2 at 298 K
# [2] = Selectivity across the five octyloxy pyranosides from NMR titrations; assay type: binding; settings: CD2Cl2, 298 K
# [3] = NMR dilution experiments for dimerization; assay type: physicochemical; settings: dilution experiments in CD2Cl2
# [4] = system: Vero cells; assay: Cellular toxicity, CellTiter-Glo, Vero cells; settings: read-out: TC50, Table 1, 72 h
# [5] = system: HeLa cells; assay: Cellular toxicity, CellTiter-Glo, HeLa cells; settings: read-out: TC50, Table 2, 72 h
substance,measurement,setting,value
"1,1′,1′″-([1,1′-biphenyl]-3,3′,5,5′-tetrayl)tetrakis(N-((1-methyl-1H-imidazol-2-yl)methyl)methanamine)",Ka (M^−1) with β-Man,[1]; 1:1 binding,590 M⁻¹
"(1E,1′E,1″E,1′″E)-N,N,N′,N″-([1,1′-biphenyl]-3,3′,5,5′-tetrayltetrakis(methylene))tetrakis(1-(1H-pyrrol-2-yl)methanimine)",Ka (M^−1) with β-Man,[1]; 1:1 binding,2400 M⁻¹
same,glycan preference in words,[2],selective for β-Gal
same,dimerization in words,[3],Dimerization was only observed
same,CC50,[4],46.1 µM
same,CC50,[5],17.6 µM
"(1E,1′E,1″E,1′″E)-N,N,N′,N″-([1,1′-biphenyl]-3,3′,5,5′-tetrayltetrakis(methylene))tetrakis(1-(furan-2-yl)methanimine)",Ka (M^−1) with β-Man,[1]; 1:1 binding,37 M⁻¹
"(1E,1′E,1″E,1′″E)-N,N,N″,N″-([1,1′-biphenyl]-3,3′,5,5′-tetrayltetrakis(methylene))tetrakis(1-(thiophen-2-yl)methanimine)",Ka (M^−1) with β-Man,[1],c
same,binding profile across the glycans in words,[2],did not have quantifiable binding
